Values quoted from earlier work, collected in US11987637B1, “Prevention of disulfide bond reduction during recombinant production of polypeptides” (Genentech, Inc., priority 2007, dated 2024).

System: HER2
Settings: patients with extensive prior anti-cancer therapy; cited from earlier work

trastuzumab: recombinant humanized version of the murine HER2 antibody 4D5
clinical activity: clinically active
